Data on one compound can be found in US12440576B2, “Antibody drug conjugates comprising sting agonists” (Mersana Therapeutics, Inc., priority 2020, dated 2025).

In the assay the test system is STING knock out (sg #3-2) SKBR3 cells. The assay is described as follows: PBMC killing assay, STING knock out SKBR3 NucRed cells (Examples 30, 30A). Type of assay: cell-based, human. To be noted: 100, 25, 5 and 1 nM payload.

Regarding `CCn1nc(C)cc1C(=O)Nc1nc2cc(C(N)=O)cc(OC)c2n1C/C=C/Cn1c(NC(=O)c2cc(C)nn2CC)nc2cc(C(N)=O)cc(OCCCO)c21` [Compound 1], the “killing of SKBR3 cells/PBMC co-cultures (FIG. 3B)” value is reported as “no activity”.
